The text below walks through data of PMC8564858, “Flavonoid-based inhibitors of the Phi-class glutathione transferase from black-grass to combat multiple herbicide resistance” (Organic & Biomolecular Chemistry, 2021).

The experiment concerns Cys120Val AmGSTF1. The settings on record: 100 µM, 60 min at 20 °C, diluted 1:100, activity towards CDNB.

The structures appear in SMILES notation.

As to `NC(CCC(=O)NC(CSc1ccc([N+](=O)[O-])c2nonc12)C(=O)NCC(=O)O)C(=O)O` (centres unmarked) [NBD-SG], the “Inhibition vs. DMSO control” value was 13%. In addition, for the setting “mean ± SD, n = 3”, the Mean specific activity is 22.4 ± 1.6 nmol s-1 mg-1 protein.
